The values below come from the supplement of paper PMC10307832.

What all share (test): relative viability (nuclei count vs DMSO), 5 days (fraction); higher = more cells survive
Compound in the experiment “Metformin + Foretinib”: CN(C)C(=N)NC(=N)N [Metformin] + COc1cc2c(Oc3ccc(NC(=O)C4(C(=O)Nc5ccc(F)cc5)CC4)cc3F)ccnc2cc1OCCCN1CCOCC1 [Foretinib] (partner 0.25 µM)
Particulars: first compound 100 µM. A digest of the protocol: (§1)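 Relative viability is defined as nuclei in treated wells over nuclei in vehicle wells. Duplicate plates were run and medians reported. Lung cancer cell lines in 1536-well plates were dosed by pin tool one day after seeding, with one drug or with a fixed anchor-drug dose plus five library-drug doses (not always all listed) in √10 steps, and nuclei were counted after 5 days.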

Compound in the experiment “Metformin + Decitabine”: CN(C)C(=N)NC(=N)N [Metformin] + Nc1ncn([C@H]2C[C@H](O)[C@@H](CO)O2)c(=O)n1 [Decitabine] (partner 2 µM)
Conditions: first compound 316.23 µM. In a few lines:
as §1

Compound in the experiment “Metformin + Phenformin”: CN(C)C(=N)NC(=N)N [Metformin] + N=C(N)NC(=N)NCCc1ccccc1 [Phenformin] (partner 250 µM)
Particulars: first compound 10 µM. A digest of the protocol:
as §1

Compound in the experiment “Metformin + Trametinib”: CN(C)C(=N)NC(=N)N [Metformin] + CC(=O)Nc1cccc(-n2c(=O)n(C3CC3)c(=O)c3c(Nc4ccc(I)cc4F)n(C)c(=O)c(C)c32)c1 [Trametinib] (partner 0.02 µM)
Conditions: first compound 1000 µM. In a few lines:
as §1

Turning to EBC-1, in the experiment with Metformin + Foretinib, the relative viability amounted to 0.118.
In the case of NCI-H647, the relative viability in the experiment with Metformin + Decitabine was found to be 0.322.
Consider NCI-H1666, for which the relative viability with Metformin + Phenformin was 0.557.
NCI-H1915: in the experiment with Metformin + Trametinib, the relative viability was 0.332.
